For the test, the species on record is Homo sapiens. Put plainly: Compound was evaluated for inhibition of ADP-induced human platelet aggregation. The test is classed as functional.

pIC50: −log10 of the molar value.

As usually defined, the pIC50 is the negative decadic logarithm of the IC50, by convention in mol/L. Read a low pIC50 as a large IC50. `N=C(N)NCCC[C@H](N)C(=O)NCC(=O)N[C@@H](CC(=O)O)C(=O)N[C@@H](CO)C(=O)O` had a pIC50 of 3.74.

For the origin of these results see ChEMBL document CHEMBL1128928, “Synthesis and biological properties of partially modified retro and retro-inverso pseudo peptides of arg-gly-asp (RGD)” (Bioorg Med Chem Lett, 1996).
